{"source": "paper PMC9266650", "molecular_target": "fluorescein-5-maleimide (FITC)-labeled PFN1(T44C) (human) (UniProt P07737)", "experiment": "fluorescence polarisation", "note": "“And” between values parts separate entries of the source, which are not always exact repeats. Equal values may be shown once."}
{"substance": "T148-ADP-ribosylated-actin (100% TccC3-ADP-ribosylated actin) (from UniProt P68135 1-377) (natural protein)", "values": [{"measurement": "fold reduction of affinity against unmodified actin", "result": "5.2 fold and 3.8 fold"}]}
